Values quoted from earlier work in patent US8329421B2, “Methods of predicting response of a neoplasm to an EGFR inhibitor and detecting interactions between EGFR and an EGFR regulatory protein” (Ventana Medical Systems, Inc., priority 2007, dated 2012).
“And” between values parts separate entries of the source, which are not always exact repeats. Identical values can stand only once. Like-named read-outs stand apart in the source and are kept apart here.

Test system: advanced colorectal cancer
Conditions: patients with advanced colorectal cancer, cited from earlier work

For cetuximab, the response rate (cetuximab alone) is listed as 10.5% and 10.8% and the response rate (combined therapy with irinotecan) is listed as 22.5% and 22.9%.
